Laboratory results: PMC3787017, “Relative Contributions of Norepinephrine and Serotonin Transporters to Antinociceptive Synergy between Monoamine Reuptake Inhibitors and Morphine in the Rat Formalin Model” (PLoS ONE, 2013)

By UniProt entry, the sequences of proteins in these tests, tags left out.
UniProt P31652, whole entry: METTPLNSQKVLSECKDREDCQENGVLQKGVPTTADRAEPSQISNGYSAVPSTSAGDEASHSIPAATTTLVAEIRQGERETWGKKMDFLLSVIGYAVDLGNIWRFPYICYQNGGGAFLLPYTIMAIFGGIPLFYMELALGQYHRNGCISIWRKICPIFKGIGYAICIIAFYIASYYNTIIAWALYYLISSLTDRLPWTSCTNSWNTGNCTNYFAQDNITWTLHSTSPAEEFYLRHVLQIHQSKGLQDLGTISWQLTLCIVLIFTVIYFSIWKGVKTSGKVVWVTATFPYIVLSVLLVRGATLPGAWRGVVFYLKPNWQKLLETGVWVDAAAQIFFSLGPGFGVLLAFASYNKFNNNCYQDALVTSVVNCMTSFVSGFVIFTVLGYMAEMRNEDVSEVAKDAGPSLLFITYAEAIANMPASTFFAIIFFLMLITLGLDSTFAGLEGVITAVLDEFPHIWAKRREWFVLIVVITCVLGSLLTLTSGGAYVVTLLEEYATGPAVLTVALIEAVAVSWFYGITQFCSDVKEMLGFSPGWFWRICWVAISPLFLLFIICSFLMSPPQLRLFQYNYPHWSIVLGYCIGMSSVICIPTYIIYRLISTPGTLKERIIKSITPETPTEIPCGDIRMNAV

What was measured:
[1] = Plasma and brain unbound concentrations by LC/MS/MS; details: rat, intraperitoneal, 75 min post-dosing
[2] = biological target: Rat SERT (Rattus norvegicus, UniProt P31652); assay: biochemical

Row | SMILES | concentration at 75 min ([1]; brain, 1 mg/kg, [Brain]unbound, fluoxetine 1 mg/kg, − esreboxetine − morphine) | concentration at 75 min ([1]; brain, [Brain]unbound, fluoxetine 1 mg/kg + esreboxetine 10 + morphine 1 mg/kg) | concentration at 75 min ([1]; brain, [Brain]unbound, fluoxetine 1 mg/kg + morphine 1 mg/kg) | concentration at 75 min ([1]; plasma, 1 mg/kg, [Plasma]unbound, fluoxetine 1 mg/kg, − esreboxetine − morphine) | concentration at 75 min ([1]; plasma, [Plasma]unbound, fluoxetine 1 mg/kg + esreboxetine 10 + morphine 1 mg/kg) | concentration at 75 min ([1]; plasma, [Plasma]unbound, fluoxetine 1 mg/kg + morphine 1 mg/kg) | Ki [2]
1 | CNCCC(Oc1ccc(C(F)(F)F)cc1)c1ccccc1 (stereo not shown) [fluoxetine] | 1.94 ± 1.2 ng/g | 1.55 ± 0.6 ng/g | 1.36 ± 0.6 ng/g | 1.73 ± 1.5 ng/mL | 1.51 ± 0.5 ng/mL | 0.96 ± 0.3 ng/mL | –
2 | CNCC[C@@H](Oc1ccccc1C)c1ccccc1 [atomoxetine] | – | – | – | – | – | – | 15.8 nM
